Experimental findings from patent US20240262833A1, “FUSED HETEROCYCLIC DERIVATIVES AS NEGATIVE ALLOSTERIC MODULATORS OF MGLU7 RECEPTOR” (Addex Pharma S.A., priority 2021, published 2024) are described below.

The chains behind the UniProt entries cited, without tags or fusion partners. Residues count along the entry.
UniProt Q14831, 35-922 isoform 2 limits assumed: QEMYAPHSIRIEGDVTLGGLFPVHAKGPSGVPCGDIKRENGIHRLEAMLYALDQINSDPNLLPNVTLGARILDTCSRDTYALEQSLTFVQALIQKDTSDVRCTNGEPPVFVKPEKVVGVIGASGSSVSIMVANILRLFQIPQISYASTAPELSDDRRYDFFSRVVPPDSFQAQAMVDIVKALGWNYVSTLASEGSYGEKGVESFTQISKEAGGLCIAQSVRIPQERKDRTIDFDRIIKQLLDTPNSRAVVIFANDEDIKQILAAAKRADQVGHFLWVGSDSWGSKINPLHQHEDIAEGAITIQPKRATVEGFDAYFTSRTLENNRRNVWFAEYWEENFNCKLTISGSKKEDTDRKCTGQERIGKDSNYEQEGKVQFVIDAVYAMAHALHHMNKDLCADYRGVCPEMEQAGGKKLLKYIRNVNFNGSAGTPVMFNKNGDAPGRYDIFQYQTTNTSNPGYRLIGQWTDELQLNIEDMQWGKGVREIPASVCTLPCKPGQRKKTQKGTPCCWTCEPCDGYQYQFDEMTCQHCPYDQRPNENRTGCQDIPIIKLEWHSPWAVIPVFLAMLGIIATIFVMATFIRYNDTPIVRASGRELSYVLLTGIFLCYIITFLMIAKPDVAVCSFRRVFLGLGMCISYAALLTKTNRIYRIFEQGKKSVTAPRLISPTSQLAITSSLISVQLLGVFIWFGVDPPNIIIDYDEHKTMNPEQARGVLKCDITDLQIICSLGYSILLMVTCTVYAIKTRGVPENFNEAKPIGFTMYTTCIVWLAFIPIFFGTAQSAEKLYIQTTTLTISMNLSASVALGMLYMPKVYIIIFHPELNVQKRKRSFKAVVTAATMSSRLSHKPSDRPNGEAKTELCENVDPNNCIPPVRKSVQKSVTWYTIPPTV

This experiment deals with human metabotropic glutamate 7 receptor (hmGlu7) (Homo sapiens, UniProt Q14831). The experiment is described as follows: mGlu7 assay on HEK-expressing human mGlu7: fluorescent cell based Ca2+ mobilization assay (FLIPR), inhibition of EC80 L-AP4 response. The note with it: read-out: Ca2+ Flux (mean IC50); HEK-293 cells expressing hmGlu7; EC80 L-AP4 stimulation; mean of at least three independent experiments in duplicate. The text has this: mGlu7 Assay on HEK-Expressing Human mGlu7
The cDNA encoding the human metabotropic glutamate 7 receptor (hmGlu7), (accession number NM_181874.2, NCBI Nucleotide database browser), was subcloned into an expression vector containing also the hygromycin resistance gene. In parallel, the cDNA encoding a G protein allowing redirection of the activation signal to intracellular calcium flux was subcloned into a different expression vector containing also the Puromycin resistance gene. Transfection of both these vectors into HEK293 cells with PolyFect reagent (Qiagen) according to supplier's protocol, and hygromycin and puromycin treatment allowed selection of antibiotic resistant cells which had integrated stably one or more copies of the plasmids. Positive cellular clones expressing hmGlu7 were identified in a functional assay measuring changes in calcium fluxes in response to glutamate and L-AP4 or known mGlu7 orthosteric antagonists. […]
After 10 s of basal fluorescence recording, various concentrations of the compounds of the invention were added to the cells. Changes in fluorescence levels were first monitored for 180 s in order to detect any agonist activity of the compounds. […]
(In general: Calcium assays in cells follow changes in intracellular calcium, usually with a dye or a luminescent sensor.)

The term IC50 denotes the concentration that inhibits the measured activity by half. Turning to `CCOC(=O)c1cccc(-n2c(C)c3cnn(-c4ccccc4)c(=O)c3c2C)c1`, the IC50 was in the range of 100 to 1000 nM.

With `COc1cccc(-n2c(C)c3c(C)nn(-c4ccccn4)c(=O)c3c2C)c1`, the half-inhibitory concentration (IC50) fell in the range of 1000 to 10000 nM.
